In PubChem BioAssay AID485314 (National Center for Advancing Translational Sciences (NCATS), 2010):
Only a part is listed here, and it is no random draw. Inconclusive results are not listed. A call without a number means that no potency is given here. Activity calls are given as the source filed them. Calls come from the whole dose curve; as a rule, active = well fitted inhibition curve with a large enough effect; inconclusive = small, poorly fitted or top-dose-only effect, or another doubt; inactive = no such curve, though single readings can be large or run the other way.

Molecular target: DNA polymerase beta (Homo sapiens) (UniProt P06746)
Experiment: qHTS Assay for Inhibitors of DNA Polymerase Beta
Settings: Pol beta primer extension/strand displacement, fluorescence kinetic; series mostly up to 114 µM
Excerpt: The base excision repair system in human cells is a target for therapeutic modulation of the response to irradiation treatment and DNA-damaging drugs. A key enzyme in this system is the bi-functional DNA polymerase known as DNA polymerase Beta (Pol Beta). The following is a homogeneous kinetic assay to study the primer extension and strand-displacement reaction catalyzed by pol beta.
A stepwise description of the 1536-well assay is shown in next Table. Three microliters of reagents (buffer in column 3 and 4 as negative control and 10 nM Pol beta in columns 1, 2, and 5-48) was dispensed into 1,536-well black solid-bottomed plate. Compounds (23 nL) were transferred via Kalypsys pin tool equipped with 1536-pin array (10 nL slotted pins, V&P Scientific, San Diego, CA). The plates were incubated for 15 min at room temperature, and 1 uL substrate (50 nM final concentration) were added to start the reaction and immediately read at 0 min read on Viewlux reader. The plate were further incubated for 10 min at room temperature, and then read on Viewlux again. Throughout the screen, reagent bottle and all liquid lines were chilled and made light-tight to minimize reagent degradation. All screening operations were performed on a fully integrated robotic system (Kalypsys, San Diego, CA) containing one RX-130 and two RX-90 anthropomorphic robotic arms (Staubli, Duncan, SC). Library plates were screened starting from the lowest and proceeding to the highest concentration, and a double-dipping step of the highest concentration was required to access higher concentrations of compounds. Vehicle-only plates, with DMSO being pin-transferred to the entire column 5-48 compound area, were inserted uniformly at the beginning and the end of each library in order to monitor for and record any shifts in the background, which can be affected by reagent dispensers or loss in enzyme activity overtime. Screening data were corrected, normalized, and concentration-effect relationships were derived by using publicly-available curve fitting algorithms developed in-house (http://ncgc.nih.gov/pub/openhts). A four parameter Hill equation was fitted to the concentration-response data by minimizing the residual error between the modeled and observed responses.
Potency is the fitted concentration of half-maximal effect.

| Structure (SMILES) | Potency |
| --- | --- |
| COc1ccc(OP(C)(=O)Nc2cccc(F)c2)cc1 (configuration not stated) | inactive |
| COc1ccccc1OP(C)(=O)Nc1cc(Cl)ccc1C (configuration not stated) | inactive |
| Cc1cc(C)cc(OP(C)(N)=O)c1 (configuration not stated) | inactive |
| CCOC(=O)c1ccc(NP(C)(=O)Oc2ccccc2)cc1 (configuration not stated) | inactive |
| Cc1ccc(NP(C)(=O)Oc2ccccc2)c(C)c1 (configuration not stated) | inactive |
| COc1ccccc1OP(C)(=O)Nc1ccc(C)cc1 (configuration not stated) | inactive |
| Cc1cccc(C)c1OP(C)(N)=O (configuration not stated) | inactive |
| O=[N+]([O-])c1ccc2c(c1)C=Nc1ccccc1O2 | inactive |
| CCN(CC)CCCOC(=O)C(O)(c1ccccc1)c1ccccc1 | inactive |
| CP(=O)(Nc1ccccn1)Oc1ccc(Cl)cc1 (configuration not stated) | inactive |
| CCOP(C)(=S)SCC(=O)NC(C)C(=O)O (configuration not stated) | inactive |
| CCOC(=O)c1ccc(NP(C)(=O)Oc2ccc(OC)cc2)cc1 (configuration not stated) | inactive |
| Cc1cc(C)cc(OP(C)(=O)Nc2ccc(SC(F)(F)F)cc2)c1 (configuration not stated) | inactive |
| CCc1ccc(OP(C)(=O)N2CCN(c3ccc([N+](=O)[O-])cc3)CC2)cc1 (configuration not stated) | inactive |
| CP(=O)(NC(=O)Nc1ccccc1)Oc1ccccc1 (configuration not stated) | inactive |
| CP(=O)(Oc1ccccc1)OC(c1ccccc1)C(F)(F)F (configuration not stated) | inactive |
| CP(=O)(Nc1ccc(SC(F)(F)F)cc1)Oc1ccc(Cl)cc1 (configuration not stated) | inactive |
| Cc1cccc(C)c1OP(C)(=O)Nc1ccc(SC(F)(F)F)cc1 (configuration not stated) | inactive |
| COc1ccccc1OP(C)(=O)Nc1ccccc1 (configuration not stated) | inactive |
| CP(=O)(Nc1ccccc1Br)Oc1ccccc1 (configuration not stated) | inactive |
| CP(=S)(Nn1cnnc1)Oc1ccccc1 (configuration not stated) | inactive |
| CP(=O)(Nc1ccc(SC(F)(F)F)cc1)Oc1ccccc1 (configuration not stated) | inactive |
| CCCOc1ccc(NP(C)(=O)Oc2ccc(Cl)cc2)cc1 (configuration not stated) | inactive |
| CN1CCCCC1COC(=O)C1(O)c2ccccc2CCc2ccccc21 (configuration not stated) | inactive |
| COc1ccccc1OP(C)(=O)Nc1c(C)cccc1C (configuration not stated) | inactive |
| O=[N+]([O-])c1cc([N+](=O)[O-])c(Nc2nnnn2CCO)c([N+](=O)[O-])c1 | inactive |

| Structure (SMILES) | Potency |
| --- | --- |
| Cc1nc2ccc3ccccc3c2s1.O=[N+]([O-])c1cc([N+](=O)[O-])c(O)c([N+](=O)[O-])c1 | inactive |
| O=[N+]([O-])c1cc([N+](=O)[O-])c(-n2nnc3ccccc32)c([N+](=O)[O-])c1 | inactive |
| CP(=O)(Nc1cccc(Br)c1)Oc1ccccc1 (configuration not stated) | inactive |
| Cc1cc(C)cc(OP(C)(=O)Nc2ccccn2)c1 (configuration not stated) | inactive |
| Cc1ccc(C)c(NP(C)(=O)Oc2ccccc2)c1 (configuration not stated) | inactive |
| Cc1cc(C)cc(OP(C)(=O)Nc2ccc(C)cc2C)c1 (configuration not stated) | inactive |
| CCOC(=O)c1ccc(NP(C)(=O)Oc2cc(C)cc(C)c2)cc1 (configuration not stated) | inactive |
| COc1ccccc1OP(C)(=O)Nc1cccc(Br)c1 (configuration not stated) | inactive |
| CC1=NCCc2c1[nH]c1ccccc21.O=[N+]([O-])c1cc([N+](=O)[O-])c(O)c([N+](=O)[O-])c1 | inactive |
| CCCCCOc1ccc(NP(C)(=O)Oc2ccc(Cl)cc2Cl)cc1 (configuration not stated) | inactive |
| CP(=O)(Nc1ccccc1)Oc1ccc(F)cc1 (configuration not stated) | inactive |
| CCN(CC)CCCOC(=O)C(O)(c1ccccc1)C1CCCCC1 (configuration not stated) | inactive |
| COc1ccc(OP(C)(=O)Nc2ccc(SC(F)(F)F)cc2)cc1 (configuration not stated) | inactive |
| CCOC(=O)c1ccc(NP(C)(=O)Oc2ccc(F)cc2)cc1 (configuration not stated) | inactive |
| O=C(OCCN1CCN(CCOCc2ccccc2)CC1)C(O)(c1ccccc1)c1ccccc1 | inactive |
| CP(=O)(Nc1ccccc1F)Oc1ccccc1 (configuration not stated) | inactive |
| Cc1ccccc1NP(C)(=O)Nc1ccccc1C | inactive |
| CP(=O)(Nc1ccc2c(c1)OCCO2)Oc1ccccc1 (configuration not stated) | inactive |
| CCOP(C)(=S)SCC(=O)NC(C)(CC)C(=O)O (configuration not stated) | inactive |
| CP(=O)(Nc1ccc(SC(F)(F)F)cc1)Oc1ccc(F)cc1 (configuration not stated) | inactive |
| Cc1cc(-c2cccc3ccccc23)c(C)cn1.O=[N+]([O-])c1cc([N+](=O)[O-])c(O)c([N+](=O)[O-])c1 | inactive |
| O=[N+]([O-])c1ccc(OP2(=O)COCCO2)cc1 (configuration not stated) | inactive |
| COc1ccc(NP(C)(=O)Oc2ccccc2OC)cc1 (configuration not stated) | inactive |
| COc1ccc(OP(C)(=O)Nc2cccc(Br)c2)cc1 (configuration not stated) | inactive |
| CP(=O)(OC12CC3CC(CC(C3)C1)C2)OC12CC3CC(CC(C3)C1)C2 | inactive |
| CCOC(=O)c1ccc(NP(C)(=O)Oc2ccc(Cl)cc2)cc1 (configuration not stated) | inactive |

| Structure (SMILES) | Potency |
| --- | --- |
| CN(C)C(=O)c1c([N+](=O)[O-])cc([N+](=O)[O-])cc1[N+](=O)[O-] | inactive |
| CP(=O)(Nc1ccc(Cl)cc1)Oc1ccc(F)cc1 (configuration not stated) | inactive |
| CC(C)(C)c1ccc(OP(C)(=O)O)cc1 | inactive |
| COc1ccccc1OP(C)(=O)Nc1ccccc1Br (configuration not stated) | inactive |
| CCc1ccc(OP(C)(=O)Nc2cccnc2)cc1 (configuration not stated) | inactive |
| CP(=O)(Oc1ccccc1)N1CCOC1=O (configuration not stated) | inactive |
| O=C(OCCCN1CCCC1)C(O)(c1ccccc1)C1CCCCC1 (configuration not stated) | inactive |
| COc1ccccc1OP(C)(=O)Nc1c(C)n(C)n(-c2ccccc2)c1=O (configuration not stated) | inactive |
| N#[O+].[C-]#N.[C-]#N.[C-]#N.[C-]#N.[C-]#N.[Fe+2].[Na+].[Na+] | active: 11.2 µM |
| COc1ccc(OP(C)(=O)Nc2ccc(Br)cc2)cc1 (configuration not stated) | inactive |
| CCN(CC)CC(O)COC(=O)C(O)(c1ccccc1)C1CCCCC1 (configuration not stated) | inactive |
| CCc1ccc(OP(C)(=O)O)cc1 | inactive |
| COc1ccccc1OP(C)(=O)Nc1ccc(C)cc1C (configuration not stated) | inactive |
| CP(=O)(Nc1ccccn1)Oc1ccccc1 (configuration not stated) | inactive |
| O=[N+]([O-])c1cc([N+](=O)[O-])c(Nc2ccccn2)c([N+](=O)[O-])c1 | inactive |
| Cc1c(NP(C)(=O)Oc2ccc(C(C)C)cc2)c(=O)n(-c2ccccc2)n1C (configuration not stated) | inactive |
| CN(C)CCOC(=O)C(O)(c1ccccc1)C1CCCC1 (configuration not stated) | inactive |
| COc1ccc(OP(C)(=O)Nc2ccccn2)cc1 (configuration not stated) | inactive |
| COc1ccccc1OP(C)(=O)Nc1ccc(Br)cc1 (configuration not stated) | inactive |
| CP(=O)(OCCOc1ccccc1)OCCOc1ccccc1 | inactive |
| CP(=O)(Nc1ccc(Cl)cc1Cl)Oc1ccccc1 (configuration not stated) | inactive |
| Cc1nc2ccc3ccccc3c2o1.O=[N+]([O-])c1cc([N+](=O)[O-])c(O)c([N+](=O)[O-])c1 | inactive |
| COc1ccc(OP(C)(=O)Nc2ccccc2Br)cc1 (configuration not stated) | inactive |
| COc1ccccc1OP(C)(=O)Nc1ccc(C)c(C)c1 (configuration not stated) | inactive |
| Cc1cc(C)cc(OP(C)(=O)Nc2cccc(C(F)(F)F)c2)c1 (configuration not stated) | inactive |
